## Measured properties of organic chemicals

From the experimental data distributed with OPERA 2.9.

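OPERA's authors assembled the values from existing databases and did not measure them anew. One number stands for a compound and property, with no spread given. Method and conditions are not stated for these values. Where a salt, mixture or single isomer is drawn, the source does not say that exactly this form was tested. Some entries may be limits or estimates that an upstream database listed as plain numbers.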

The melting point is given in degrees Celsius.
Boiling points are in °C, nominally at 760 mmHg.
logP is the log10 of the octanol-water partition coefficient; higher is more lipophilic.
Solubility in water is on a log10 molar scale (set defined at 25 °C).
Vapor pressure is log10 of mmHg; the set covers 15 to 30 °C, mostly 20 to 25 °C.
The Henry's law constant is on a log10 scale in atm·m3/mol (set defined at 25 °C); higher favours air over water.
fu is the fraction unbound in human plasma, from 0 to 1.
Clint is human hepatic intrinsic clearance in µL/min per million cells; 0 means that no clearance was seen.
"–" marks a cell with nothing listed here.

| structure (SMILES) | melting point (°C) | bp (°C) | log Kow | log S (log10 mol/L) | vapor pressure (log10 mmHg) | Henry's law constant (log10 atm·m3/mol) | plasma fu | intrinsic clearance (µL/min/10^6 cells) |
|---|---|---|---|---|---|---|---|---|
| CC1C(C)(C)C2CCc3cncnc3C2C1(C)C (configuration not stated) | – | 339 | – | -4.396 | -3.663 | – | – | – |
| C[Si](C)(C)O | -7.45 | – | – | – | 1.131 | – | – | – |
| CN(C)Cc1cc(CN(C)C)c(O)c(CN(C)C)c1 | – | – | 0.219 | – | -1.25 | – | – | – |
| Cl.N/N=C(\O)C(N)CO (stereo partly drawn) | 198 | – | 0.001 | – | -4.546 | – | – | – |
| CCN(CC)CCCN | – | – | 0.36 | – | 0.175 | – | – | – |
| CC(C)[C@@H]1CC[C@@H](C)C[C@H]1OC(=O)[C@H](C)O | 41.8 | 269.9 | 3.639 | – | – | – | – | – |
| Nc1ccc(S(N)(=O)=O)cc1 | – | – | – | – | -5.137 | -9.824 | – | – |
| COC(=O)OC1CCC=CCCC1 (configuration not stated) | – | – | 2.9 | – | -1.521 | – | – | – |
| CC1CCOC(c2ccccc2)C1 (configuration not stated) | – | – | 3.43 | – | -1.588 | – | – | – |
| CCCCCC1CCC(c2ccc(OCC)c(F)c2F)CC1 (configuration not stated) | 49.35 | 365.2 | – | -7.015 | -5.516 | – | – | – |
| C=CC(=O)NC(C)(C)C | – | – | 1.45 | -1.803 | – | – | – | – |
| C1C2CC2C2CC12 (configuration not stated) | – | 105 | – | – | 1.573 | – | – | – |
| CC(=O)OC(C)c1ccccc1 (racemic) | – | 224.9 | – | – | -1.385 | – | – | – |
| CCN[C@H]1CN(CCCOC)S(=O)(=O)c2sc(S(N)(=O)=O)cc21 | – | – | -1.8 | -2.731 | – | – | 0.4 | – |
| CN(C=O)c1ccccc1 | – | – | – | -1.495 | -1.7 | – | – | – |
| O=C(CCS)OCCn1c(=O)n(CCOC(=O)CCS)c(=O)n(CCOC(=O)CCS)c1=O | – | – | 2.54 | -2.514 | -6.116 | – | – | – |
| O=C1C(N(CO)C(=O)NCO)N(CO)C(=O)N1CO (configuration not stated) | 157.8 | – | – | – | -10.2 | – | – | – |
| CO[Si](OC)(OC)C1CCCC1 | -80.15 | – | – | – | 1.111 | – | – | – |
| CC(C)CCOC(=O)c1ccccc1O | 5.4 | – | 4.78 | – | -1.153 | – | – | – |
| CCCCCCCCCCCCC1CO1 (configuration not stated) | 20.75 | – | – | -5.985 | -2.879 | – | – | – |
| CCCC(CCC)CCCC1COCCN1CCO.Cl (configuration not stated) | 67.2 | – | – | – | -4.648 | – | – | – |
| O=C1OCC(F)O1 (configuration not stated) | 22.15 | – | -0.034 | – | -0.417 | – | – | – |
| COc1cc(CCC(=O)CC(=O)CCc2ccc(O)c(OC)c2)ccc1O | – | – | – | – | – | – | 0.0501 | 173 |
| CC(C)CCCC(C)CCCCCCCCCC(=O)OCC(C)(C)COC(=O)CCCCCCCCCC(C)CCCC(C)C (configuration not stated) | -31.75 | – | – | -7.901 | -9.869 | – | – | – |
| CC1(C)c2ccccc2-c2ccc(Nc3ccccc3-c3ccccc3)cc21 | 121.1 | – | – | -7.382 | -8.25 | – | – | – |